Assay: Average plasma concentration of spinosyns in cats' blood (Example 1)
Format: in vivo
Details: feline, typical single monthly dose
Procedure: Each cat in test groups 2-4 is to receive by mouth a liquid formulation of spinosyn, preferably spinosad.
Using the same study method as described above, blood is to be drawn at 72, 120, 168, 336, 504, 720 and 888 hours after the initial dose of spinosyn is administered. The average concentration of spinosyn in the blood for different dosage levels can then be determined.

**Q.** For spinosad, which “plasma concentration of spinosad” value (12 hours after the dose) is on record?
**A.** Its value is about 6107 ng/mL.

**Q.** And the “plasma concentration of spinosad” value (one hour after the dose)?
**A.** The value was “about 878 ng/ml”.

From patent US20240138442A1, “ORAL FELINE FEED AND METHODS FOR CONTROLLING FLEA INFESTATIONS IN A FELINE” (In the Bowl Animal Health, Inc., priority 2021, published 2024)
